Measured values as given in ChEMBL document CHEMBL4627330, “Structural investigation on thiazolo[5,4-d]pyrimidines to obtain dual-acting blockers of CD73 and adenosine A2A receptor as potential antitumor agents” (Bioorg Med Chem Lett, 2020).

Protein sequences, listed by entry. Tags and fused reporters are not part of them.
UniProt P0DMS8, whole entry: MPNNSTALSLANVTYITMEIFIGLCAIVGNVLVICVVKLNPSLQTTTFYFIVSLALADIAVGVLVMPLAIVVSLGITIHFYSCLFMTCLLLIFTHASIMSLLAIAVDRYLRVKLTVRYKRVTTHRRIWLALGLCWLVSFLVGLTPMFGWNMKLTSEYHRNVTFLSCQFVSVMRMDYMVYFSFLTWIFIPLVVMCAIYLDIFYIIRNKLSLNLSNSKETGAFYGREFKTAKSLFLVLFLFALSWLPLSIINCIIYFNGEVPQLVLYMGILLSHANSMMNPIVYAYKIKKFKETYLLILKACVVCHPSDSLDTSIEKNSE

Target: Adenosine receptor A3 (Homo sapiens, UniProt P0DMS8)
Test: Displacement of [125I]AB-MECA from human A3R expressed in CHO cells at 10 uM relative to control

**Q.** Nc1nc(NCCN2CCN(c3ccc(S(N)(=O)=O)cc3)CC2)nc2sc(-c3ccco3)nc12 was tested. Which inhibition did it give?
**A.** The inhibition was 27%.
